What was measured:
[1] = system: Hedgehog signalling (Gli-bla NIH3T3 cells, mShh stimulated); test: Hedgehog signalling inhibition assay (Gli-Bla reporter assay in NIH 3T3 cells)
SMO = SMO (Homo sapiens, UniProt Q99835); test: SMO BODIPY-CYC binding assay using HEK293H cells
[2] = system: Ptch+/-p53-/- mice tumors (MB); test: Anti-tumor activity in Ptch+/-p53-/- mice (medulloblastoma model)
[3] = assay not given, fits BODIPY-CYC values of Table 2

The chains behind the UniProt entries cited, without tags or fusion partners. Residues count along the entry.
UniProt Q99835, 28-787 limits assumed: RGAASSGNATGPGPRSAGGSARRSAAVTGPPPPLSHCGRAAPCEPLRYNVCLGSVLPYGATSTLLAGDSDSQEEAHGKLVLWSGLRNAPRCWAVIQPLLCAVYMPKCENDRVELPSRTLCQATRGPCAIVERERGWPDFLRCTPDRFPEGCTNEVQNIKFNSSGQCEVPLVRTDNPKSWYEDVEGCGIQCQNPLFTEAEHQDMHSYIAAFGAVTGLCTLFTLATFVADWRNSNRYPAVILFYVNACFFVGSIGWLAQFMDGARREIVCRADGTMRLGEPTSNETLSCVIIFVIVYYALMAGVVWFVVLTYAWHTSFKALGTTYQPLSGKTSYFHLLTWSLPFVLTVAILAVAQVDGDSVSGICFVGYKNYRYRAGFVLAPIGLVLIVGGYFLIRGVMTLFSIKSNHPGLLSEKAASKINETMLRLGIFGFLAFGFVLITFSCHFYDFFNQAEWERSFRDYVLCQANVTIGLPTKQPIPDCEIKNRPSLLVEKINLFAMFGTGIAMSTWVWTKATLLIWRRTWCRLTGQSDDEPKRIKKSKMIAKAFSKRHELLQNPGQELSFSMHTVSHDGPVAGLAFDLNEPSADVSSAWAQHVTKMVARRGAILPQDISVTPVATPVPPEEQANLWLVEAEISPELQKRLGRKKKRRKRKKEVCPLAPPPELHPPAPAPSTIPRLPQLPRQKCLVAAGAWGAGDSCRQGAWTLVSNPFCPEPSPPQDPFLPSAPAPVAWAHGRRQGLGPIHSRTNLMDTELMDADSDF

O=C(Nc1cc(NC(=O)c2ccc(N3CCCS3(=O)=O)cc2Cl)ccc1Cl)c1cccc(Cl)c1 [Example 120]
greater potency than either GDC-0449 or Sant-I ([1]; Gli-Bla assay): 3 orders of magnitude | EC50 ([1]; read-out: Gli-Bla reporter assay (EC50), NIH 3T3 cells): 0.005 nM | increase in potency over GOC-0449 (SMO; [3]): 5 fold | potency compared with Sant-I (SMO; [3]): approximately equivalent potency to Sant-I | EC50 (SMO; read-out: BODIPY-CYC binding assay (EC50), HEK293H cells): 0.773 nM | activity against MB formation [2]: highly active against MB formation | anti-tumor activity (tumor size) ([2]; FIG. 3): anti-tumor activity | degree of anti-tumor activity compared with GDC-0449 ([2]; relative tumor size at day 7, FIG. 5): greater than that of GDC-0449

Source: patent publication US10183013B2, “Cyclic sulfonamide containing derivatives as inhibitors of hedgehog signaling pathway” (NantBioScience, Inc., priority 2012, dated 2019)
